Data published in EP4843988A1, “PYRIDOTHIOPHENE-2-CARBOXYLIC ACID DERIVATIVE, PREPARATION METHOD THEREFOR AND USE THEREOF” (dated 2026).
Values belong to the compound of their own block, whether it stands above or below them.

The chains behind the UniProt entries cited, without tags or fusion partners.
UniProt P33261, whole entry: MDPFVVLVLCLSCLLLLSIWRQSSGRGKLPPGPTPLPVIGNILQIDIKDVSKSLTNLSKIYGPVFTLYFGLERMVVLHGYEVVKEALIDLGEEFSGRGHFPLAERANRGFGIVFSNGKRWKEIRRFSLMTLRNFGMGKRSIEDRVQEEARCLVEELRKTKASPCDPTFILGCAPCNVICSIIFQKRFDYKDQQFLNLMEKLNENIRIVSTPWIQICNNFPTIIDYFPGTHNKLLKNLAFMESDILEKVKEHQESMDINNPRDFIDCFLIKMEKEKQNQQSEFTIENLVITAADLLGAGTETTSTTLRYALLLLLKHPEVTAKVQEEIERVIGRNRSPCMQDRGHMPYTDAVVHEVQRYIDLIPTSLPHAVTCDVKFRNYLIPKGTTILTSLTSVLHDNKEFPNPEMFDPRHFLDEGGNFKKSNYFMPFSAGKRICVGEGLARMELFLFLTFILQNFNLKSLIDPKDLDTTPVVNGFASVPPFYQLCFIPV
UniProt P11712, whole entry: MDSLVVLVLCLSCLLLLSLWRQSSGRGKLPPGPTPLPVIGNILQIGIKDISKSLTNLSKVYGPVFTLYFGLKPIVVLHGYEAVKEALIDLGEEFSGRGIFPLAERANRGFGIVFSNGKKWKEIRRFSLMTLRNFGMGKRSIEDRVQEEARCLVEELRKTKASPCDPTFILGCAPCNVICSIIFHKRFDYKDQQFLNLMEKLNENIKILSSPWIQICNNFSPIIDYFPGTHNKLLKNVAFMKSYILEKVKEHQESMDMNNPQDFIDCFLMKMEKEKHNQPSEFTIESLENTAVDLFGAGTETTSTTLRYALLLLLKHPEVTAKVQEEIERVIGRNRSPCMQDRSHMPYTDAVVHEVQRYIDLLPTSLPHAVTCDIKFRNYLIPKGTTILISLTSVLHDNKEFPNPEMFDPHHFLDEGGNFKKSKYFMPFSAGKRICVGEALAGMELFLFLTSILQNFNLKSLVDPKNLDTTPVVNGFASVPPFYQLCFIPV
UniProt P05177, whole entry: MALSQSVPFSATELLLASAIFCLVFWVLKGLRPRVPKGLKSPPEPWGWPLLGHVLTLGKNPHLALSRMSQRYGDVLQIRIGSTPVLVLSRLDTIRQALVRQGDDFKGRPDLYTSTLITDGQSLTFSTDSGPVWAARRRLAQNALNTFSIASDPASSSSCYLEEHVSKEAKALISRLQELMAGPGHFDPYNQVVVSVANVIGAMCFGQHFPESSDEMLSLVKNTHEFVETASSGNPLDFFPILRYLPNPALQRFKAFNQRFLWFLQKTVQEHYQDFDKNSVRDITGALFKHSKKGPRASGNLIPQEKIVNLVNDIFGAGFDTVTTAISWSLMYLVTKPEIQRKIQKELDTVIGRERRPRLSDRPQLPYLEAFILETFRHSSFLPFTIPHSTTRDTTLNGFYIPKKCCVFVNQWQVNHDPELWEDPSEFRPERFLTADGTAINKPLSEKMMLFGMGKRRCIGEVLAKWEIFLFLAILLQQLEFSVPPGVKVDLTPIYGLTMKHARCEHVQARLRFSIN
UniProt P10635, whole entry: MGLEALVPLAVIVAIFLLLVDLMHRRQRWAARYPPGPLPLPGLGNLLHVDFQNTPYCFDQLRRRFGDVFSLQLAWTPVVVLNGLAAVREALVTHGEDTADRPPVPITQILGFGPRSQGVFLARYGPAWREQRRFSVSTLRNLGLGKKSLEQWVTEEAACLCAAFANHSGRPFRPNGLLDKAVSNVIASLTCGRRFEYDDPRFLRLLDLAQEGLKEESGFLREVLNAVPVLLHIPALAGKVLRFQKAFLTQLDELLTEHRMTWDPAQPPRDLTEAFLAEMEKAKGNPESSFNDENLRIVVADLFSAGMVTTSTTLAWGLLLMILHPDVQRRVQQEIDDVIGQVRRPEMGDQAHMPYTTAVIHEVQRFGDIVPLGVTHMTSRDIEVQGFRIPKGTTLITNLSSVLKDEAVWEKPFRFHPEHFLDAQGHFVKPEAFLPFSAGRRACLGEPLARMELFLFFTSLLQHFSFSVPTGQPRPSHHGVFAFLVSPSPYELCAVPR

What was measured:
[1] = target: BCKDK protein in HEK293 cells (Homo sapiens, UniProt O14874); test: Inhibitory effect of compounds on BCKDK protein in HEK293 cells (Phospho-BCKDH-E1α (Ser293) signal); conditions: compound treatment 4 h at 37 °C, Phospho-BCKDH-E1α (Ser293) detection
[2] = target: CYP2C19 (Homo sapiens, UniProt P33261); test: Inhibitory activity against human CYP450 in human liver microsomes: CYP2C19; conditions: read-out: Inhibitory activity IC50 against CYP2C19; human liver microsomes 0.2 mg/mL, substrate S-mephenytoin 35 µM
[3] = target: CYP2C9 (Homo sapiens, UniProt P11712); test: Inhibitory activity against human CYP450 in human liver microsomes: CYP2C9; conditions: read-out: Inhibitory activity IC50 against CYP2C9; human liver microsomes 0.2 mg/mL, substrate Diclofenac sodium 10 µM
[4] = target: CYP1A2 (Homo sapiens, UniProt P05177); test: Inhibitory activity against human CYP450 in human liver microsomes: CYP1A2; conditions: read-out: Inhibitory activity IC50 against CYP1A2; human liver microsomes 0.2 mg/mL, substrate Phenacetin 30 µM
[5] = target: CYP2D6 (Homo sapiens, UniProt P10635); test: Inhibitory activity against human CYP450 in human liver microsomes: CYP2D6; conditions: read-out: Inhibitory activity IC50 against CYP2D6; human liver microsomes 0.2 mg/mL, substrate Bufuralol hydrochloride 5 µM
[6] = test system: CYP3A; test: Inhibitory activity against human CYP450 in human liver microsomes: CYP3A; conditions: read-out: Inhibitory activity IC50 against CYP3A; human liver microsomes 0.2 mg/mL, substrate Midazolam 3 µM
[7] = Stability test of compounds in rat hepatocytes; conditions: 1 µM test compound, 0.5 × 10^6 cells/mL, 0-120 min
[8] = Stability test of compounds in human hepatocytes; conditions: 1 µM test compound, 0.5 × 10^6 cells/mL, 0-120 min
[9] = In vivo pharmacokinetic experiment in dogs; conditions: dogs (beagles), oral (intragastric) administration, 3 mpk, mean of two animals
[10] = In vivo pharmacokinetic experiment in rats; conditions: oral (intragastric) administration, 20 mpk, mean of two animals

SMILES: CCc1c(F)c(F)cc(-c2c(C(=O)O)sc3cc(F)cnc23)c1F
- IC50 [1]: 2.83 µM

SMILES: COc1c(F)c(F)cc(-c2c(C(=O)O)sc3cc(F)ccc23)c1F
- IC50 [2]: > 30 µM
- IC50 [3]: 1.09 µM
- IC50 [4]: > 30 µM
- IC50 [5]: > 30 µM
- IC50 [6]: > 30 µM

SMILES: Cc1c(F)c(F)cc(-c2c(C(=O)O)sc3cc(Cl)cnc23)c1F
- IC50 [1]: 4.72 µM

SMILES: CCc1c(F)c(F)cc(-c2c(C(=O)O)sc3cc(Cl)cnc23)c1F
- IC50 [1]: 1.36 µM

SMILES: COc1c(F)cc(Cl)c(-c2c(C(=O)O)sc3cc(F)cnc23)c1F
- Metabolic clearance rate CLint in hepatocytes, Rat [7]: 20.18 µL/min/10^6 cells
- IC50 [1]: 1.56 µM
- Metabolic clearance rate CLint in hepatocytes, Human [8]: 2.38 µL/min/10^6 cells
- IC50 [2]: > 30 µM
- IC50 [3]: > 30 µM
- AUClast [9]: 102.182 µg·h/mL
- Cmax [9]: 18250 ng/mL
- T1/2 [9]: 5.77 h
- IC50 [4]: > 30 µM
- IC50 [5]: > 30 µM
- IC50 [6]: > 30 µM
- AUClast [10]: 1297.444 µg·h/mL
- Cmax [10]: 77900 ng/mL

SMILES: COc1c(F)c(F)cc(-c2c(C(=O)O)sc3cc(F)cnc23)c1F
- IC50 [1]: 9.66 µM

SMILES: CSc1c(F)c(F)cc(-c2c(C(=O)O)sc3cc(F)cnc23)c1F
- IC50 [1]: 2.61 µM

SMILES: O=C(O)c1sc2cc(F)cnc2c1-c1c(Cl)cc(F)c(OC(F)F)c1F
- IC50 [1]: 4.36 µM

SMILES: COc1c(F)cc(Cl)c(-c2c(C(=O)O)sc3cc(Cl)cnc23)c1F (single isomer, unassigned)
- IC50 [1]: 0.96 µM

SMILES: O=C(O)c1sc2cc(Cl)cnc2c1-c1c(Cl)cc(F)c(OC(F)F)c1F
- IC50 [1]: 0.56 µM

Further compounds by falling IC50 [1], results first:

- IC50 [1]: 5.92 µM
SMILES: O=C(O)c1sc2cc(F)cnc2c1-c1cc(F)c(F)c(OC(F)F)c1F

- IC50 [1]: 5.66 µM
SMILES: COc1c(F)c(F)cc(-c2c(C(=O)O)sc3cc(Cl)cnc23)c1F

- IC50 [1]: 4.13 µM
SMILES: Cc1c(F)c(-c2c(C(=O)O)sc3cc(Cl)cnc23)cc(F)c1Cl

- IC50 [1]: 3.57 µM
SMILES: O=C(O)c1sc2cc(Cl)cnc2c1-c1cc(F)c(F)c(OC(F)F)c1F

- IC50 [1]: 0.89 µM
SMILES: [2H]C([2H])([2H])Oc1c(F)cc(Cl)c(-c2c(C(=O)O)sc3cc(Cl)cnc23)c1F
